uPA surface inh – blocks generation of uPA at the cell surface. Potency, µM (highest dose often 38.3 µM), for inactives: top-dose activity change, negative = inhibition, usual class: inhibitors. AID 540303. 0.31% of 330,000 active. cell surface uPA generation assay, qHTS; active = well fitted inhibition curve with a large enough effect; inconclusive = small, poorly fitted or top-dose-only effect; inactive = no such curve, though single readings can be large or run the other way; tested in mouse RAW 264.7 cells; also: potency is read from the fitted curve at half-maximal effect; % is scaled to controls: 0 for no effect and ±100 for the full control effect; nearly all actives have a fitted effect of over 55% in size
TDP1 block – TDP1 (human) enzyme inhibition; Q9NUW8; recombinant TDP1, AlphaScreen DNA substrate cleavage; Potency, µM (top dose mostly 130 µM), without a hit: at the highest dose activity change, negative = inhibition, hits mostly inhibitors; 0.28% of 350,000 active; also: potency is read from the fitted curve at half-maximal effect; % is scaled to controls: 0 for no effect and ±100 for the full control effect; nearly all actives have a fitted effect of over 40% in size
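Steps: enzyme plus compound, 15 min RT; add biotin/phosphotyrosine-FITC oligonucleotide (15 nM final), react 5 min; add donor/acceptor beads (10 ug/ml final), 10 min; read AlphaScreen. Tdp1 at 1 nM final.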
DT40 TDP1 CPT – growth inhibition of DT40 Tdp1-/-;hTDP1 cells with camptothecin (screen for TDP1 inhibitors); Potency, µM (series often up to 46.2 µM), for the others: top-dose activity change, negative = growth inhibition, actives largely listed as inhibitors; AID 686979; 12% of 420,000 active; chicken DT40 Tdp1-/-;hTDP1 cells + 20 nM CPT, ATP luminescence, 48 h; also: potency is read from the fitted curve at half-maximal effect; % is scaled to controls: 0 for no effect and ±100 for the full control effect; nearly all actives have a fitted effect of over 55% in size
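Cell growth measured by CellTiter-Glo luminescence after a minimum 48 h, 37 C compound exposure with 20 nM CPT in Tdp1-knockout DT40 cells stably expressing hTDP1, seeded 400/well; qHTS titration format.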
DT40 TDP1 no CPT – qHTS for Inhibitors of human tyrosyl-DNA phosphodiesterase 1 (TDP1): qHTS in cells in absence of CPT; DT40 Tdp1-/- hTDP1 cells, no CPT, ATP luminescence, 48 h; Potency, µM (top dose mostly 46.2 µM), for the others: top-dose activity change, negative = growth inhibition, actives largely listed as inhibitors; 15% of 420,000 active; also: potency is read from the fitted curve at half-maximal effect; % is scaled to controls: 0 for no effect and ±100 for the full control effect; nearly all actives have a fitted effect of over 55% in size
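Cells were dispensed at 400 per well, compounds added by pin tool, plates incubated ≥48 hr at 37 °C, then CellTiter-Glo added for 30 min at room temperature before luminescence reading. Line: DT40 Tdp1-/- complemented with hTDP1; camptothecin omitted.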
miR-21 FLuc – miR-21 reporter, rising signal; Potency, µM (titrated, usually from 38.3 µM), without a hit: at the highest dose reporter change, positive = more light; AID 2288; 340,000 tested, under 10 active; HeLa miR-21 FLuc reporter, luciferase, 48 h; active = well fitted rising curve with a large enough effect; inconclusive = small, poorly fitted or top-dose-only effect; inactive = no such curve, though single readings can be large or run the other way;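 note: % of control where 0% means no effect; miR-21 action dims this reporter so a rising signal means less miR-21 action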
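Luminescence from a firefly luciferase reporter carrying a miR-21 binding site downstream, stably expressed under a CMV promoter in HeLa cells that make miR-21 endogenously, reports miRNA modulation after 48 h compound exposure up to approximately 40uM final.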
Numbers without * were called inactive; ? = inconclusive; nt = no result given; [ ] = remark or other dose. An excerpt weighted towards active compounds, which were near 16% of everything screened. Unless noted, calls follow the shape of the dose curve; as a rule, active = well fitted curve in the direction sought with a large enough effect; inconclusive = small, poorly fitted or top-dose-only effect, or another doubt; inactive = no such curve, though single readings can be large; an effect the other way counts as inactive or inconclusive.

No. | smiles | uPA surface inh | miR-21 FLuc | DT40 TDP1 CPT | DT40 TDP1 no CPT | TDP1 block
1 | CCn1cc2nc(SCC(=O)Nc3ccc(OC)c(Cl)c3)n(Cc3ccc(OC)cc3)c(=O)c2n1 | nt | 2% | -23% | -23% | -2%
2 | CCn1cc2nc(SCc3ccccc3)n(Cc3ccc(C)cc3)c(=O)c2n1 | nt | -6% | 16µM* | 10µM* | 5%
3 | CCn1cc2nc(SCc3ccc(F)cc3)n(Cc3ccc(Cl)cc3)c(=O)c2n1 | nt | 2% | 6.5µM* | 3.3µM* | 3%
4 | CCn1cc2nc(SCc3ccccc3F)n(Cc3ccc(C)cc3)c(=O)c2n1 | nt | 1% | 21µM* | 12µM* | 0%
5 | CCN1C(=O)N(C)[C@@H](c2ccccc2)C(C(=O)OC)=C1C | 10% | 6% | 2% | ? | 8%[12.3 µM]
6 | CCn1cc2nc(SCc3ccc(C)cc3)n(CCc3ccccc3)c(=O)c2n1 | nt | 9% | ? | ? | 0%
7 | CCn1cc2nc(SCc3cc(C)ccc3C)n(Cc3ccc(C)cc3)c(=O)c2n1 | nt | 4% | 16µM* | -73% | 3%
8 | N#Cc1ccccc1S(=O)(=O)N1CCN(C(=O)CCNS(=O)(=O)c2ccc(Cl)cc2)CC1 | -4% | nt | -23% | -24% | nt
9 | CC(=O)c1ccc(N/N=C(/C(N)=O)C2=NC(C)(C)Cc3ccccc32)cc1 | -6% | ? | 12µM* | 9.2µM* | 8%
10 | CC1(C)Cc2ccccc2C(/C(=N\Nc2cccc(Cl)c2)C(N)=O)=N1 | 3% | 22% | ? | ? | 7%
11 | O=C1N(Cc2ccccc2)CC2(Br)COCOC12O (stereo unspecified) | -1% | nt | 2.3µM* | 3.3µM* | nt
12 | O=C(Nc1ccccc1)C1CC(O)CN1S(=O)(=O)c1ccc([N+](=O)[O-])cc1 (stereo unspecified) | -9% | -11% | -15% | 16% | 9%

Exported in transposed form: entries from further up
#1 CCn1cc2nc(SCC(=O)Nc3ccc(OC)c(Cl)c3)n(Cc3ccc(OC)cc3)c(=O)c2n1
#2 CCn1cc2nc(SCc3ccccc3)n(Cc3ccc(C)cc3)c(=O)c2n1
#3 CCn1cc2nc(SCc3ccc(F)cc3)n(Cc3ccc(Cl)cc3)c(=O)c2n1
#4 CCn1cc2nc(SCc3ccccc3F)n(Cc3ccc(C)cc3)c(=O)c2n1

compound no.	1	2	3	4
uPA surface inh	nt	nt	nt	nt
miR-21 FLuc	2%	-6%	2%	1%
DT40 TDP1 CPT	-23%	16µM*	6.5µM*	21µM*
DT40 TDP1 no CPT	-23%	10µM*	3.3µM*	12µM*
TDP1 block	-2%	5%	3%	0%

Next part:
No. | smiles | uPA surface inh | miR-21 FLuc | DT40 TDP1 CPT | DT40 TDP1 no CPT | TDP1 block
13 | O=C(O)c1ccc2c(c1)C(=O)N([C@H](Cc1ccc([N+](=O)[O-])cc1)C(=O)O)C2=O | nt | nt | nt | nt | 6%
14 | CCOC(=O)c1[nH]c2cc3c(cc2c1NC(=O)CN1CCC(C)CC1)OCO3 | -5% | 1% | 18µM* | 11µM* | -4%
15 | CCOC(=O)c1[nH]c2cc3c(cc2c1NC(=O)CN1CCc2ccccc2C1)OCO3 | -14% | -3% | 16µM* | 12µM* | 2%
16 | CC1Nc2ccc(C(=O)NC3CCCCC3)cc2NC1=O (stereo unspecified) | 4% | 0% | -8% | -13% | 8%
17 | O=C(Nc1cccs1)Nc1c(F)c(F)cc(F)c1F | -9% | 1% | -12% | -5% | -7%
18 | Cc1cccc(C)c1NC(=O)Cc1cccs1 | 0% | -2% | 0% | -4% | nt
19 | O=C(Nc1ccc(C(F)(F)F)cn1)Nc1cccs1 | 0% | -37% | 1% | 8% | 4%
20 | N#Cc1cccc(NC(=O)Nc2cccs2)c1 | 2% | 0% | ? | 16µM* | 2%
21 | O=C(Nc1cccs1)Nc1c(F)c(F)c(F)c(F)c1F | -4% | 4% | 21µM* | 16µM* | -3%
22 | O=C(Nc1cccs1)Nc1cc(C(F)(F)F)ccc1Cl | nt | ? | ? | 16µM* | 3%
23 | Cc1cccc(C)c1NC(=O)Nc1cccs1 | -11% | -1% | 18µM* | 18µM* | 5%
24 | COc1ccc(Sc2cc(C(F)(F)F)nc(-c3ccccn3)n2)cc1 | 0% | 8% | -25% | -2% | -2%

The listing continues.
No. | smiles | uPA surface inh | miR-21 FLuc | DT40 TDP1 CPT | DT40 TDP1 no CPT | TDP1 block
25 | Cc1ccc(Cn2c(=N)c(C#N)cc3c(=O)n4cccc(C)c4nc32)cc1 | nt | -1% | nt | nt | 0%
26 | O=C(Nc1cccs1)Nc1c(F)cc(F)cc1Br | 7% | -6% | 7.3µM* | 23µM* | -2%
27 | COc1ccc(-c2nn(-c3ccccc3)cc2/C=N/N2C(=O)CSC2=S)cc1 | nt | -32% | 18µM* | 16µM* | 10%
28 | O=[N+]([O-])c1ccc(C(O)C(CO)NC(=S)Nc2ccccc2)cc1 (stereo unspecified) | 1% | 15% | 16µM* | ? | 1%
29 | O=C(NC(CO)Cc1ccc([N+](=O)[O-])cc1)C(Cl)Cl (stereo unspecified) | 8% | 0% | 16µM* | 9.2µM* | 4%
30 | O=C(NC(CO)C(O)c1ccc([N+](=O)[O-])cc1)C(Cl)Cl (stereo unspecified) | 1% | 9% | ? | ? | 7%

Source: PubChem
